We go through 39 molecules from PubChem BioAssay AID526 (National Center for Advancing Translational Sciences (NCATS), 2006).

Where “and” joins values, the source holds several entries; their conditions need not be identical. Equal values may be shown once. Some of the results follow. Calls of active or inactive are those of the source. Calls come from the whole dose curve; as a rule, active = well fitted activation curve with a large enough effect (not every such curve was filed as active); inconclusive = small, poorly fitted or top-dose-only effect, or another doubt; inactive = no such curve, though single readings can be large or run the other way.

The nature of this assay: Ubiquitin-GFP Assay. The conditions noted are these: Ubiquitin-GFP reporter cells, proteasome inhibition, GFP fluorescence, untreated = 0%, 10 µM MG-132 = 100%; at 45.9 µM (top of the series) unless noted. The source says:
NIH Chemical Genomics Center [NCGC]
NIH Molecular Libraries Screening Centers Network [MLSCN]
The ubiquitin-proteasome pathway is present within all eukaryotic cells and plays roles in normal cellular functions and disease-related dysfunction. Proteins are tagged with a poly-ubiquitin chain that targets them for the proteasome, a multimeric protease, that degrades the protein into peptides and free ubiquitin. The proteasome has a key role in regulating cell cycle and growth and is known to control the levels of cyclins and CDK inhibitors as well as tumor suppressor proteins. Additionally, the activation of NF- B is controlled by ubiquitin-labeling and degradation of the inhibitory protein I B . […] With this in mind, proteasome inhibitors such as MG-132 and PS-341 have been used to inhibit tumor cell growth.
A cellular assay for ubiquitin-proteasome function was used to find chemical probes of this pathway. The assay used an ubiquitin-GFP construct expressed in U2OS cells (BioImage). Under basal conditions little GFP can be detected as it is degraded by the proteasome. However, treatment of the cells with a proteasome inhibitor such as MG-132 results in a rise in GFP levels that can be detected in as little as four hours. We used the Acumen-Explorer laser plate cytometer having a 488 nm laser as an excitation light source to detect the GFP. Compounds were screened in 1536-well plates using qHTS with a concentration-titration series range that varied from 46 uM to 2.9 nM.
NCGC Assay Protocol Summary:
Cells (U20S ps 2042) expressing ubiquitin (G76V-GFP) were maintained in DMEM with Glutamax-1 and high glucose, 10% FBS, 1% (v/v) penicillin-streptomycin, 0.5 mg/mL Geneticin (G418). The cells were seeded in 1536-well plates using a solenoid-based dispenser at 700 cells/5ul in DMEM medium with Glutamax-1 and high glucose containing 0.5% FBS, w/o phenol red, 25 mM HEPES. The plates were incubated at 37 °C/5% CO2 overnight. Then 23 nl of MG-132 in DMSO was added to the control wells at a final concentration of 10 uM. Next, 23 nL of library compounds in DMSO were added to the sample wells. The plates were incubated for 4 hrs at 37 °C/5% CO2. Following this incubation the plates were read on the Acumen using a cell object definition of 15 to 100 um in width and depth and a window of Total Intensity of between 77,200 and 2,720,000 FLU to enumerate GFP-expressing cells.
The %Activity was determined from the basal and MG-132 treated control wells. %Activity was determined by normalizing to the difference in signal between basal cells (0% Activity) and cells incubated with 10 uM of the proteasome inhibitor MG-132 (100% Activity). Concentration-response curves were fitted to the signals arising from the GFP fluorescence.
Assay Protocol Summary Table
Sequence Parameter Value Description
2. Time O/N 37C incubation
4. Compound 23 nL Libraries (46 uM to 2.9 nM)
5. Time 4 hr 37C incubation
6. Detector Acumen Total Intensity, GFP fluorescence (488 ex/515 em)
Keywords: NIH Roadmap, MLSCN, MLI, MLSMR, BioImage, proteasome, ubiquitin-GFP, qHTS, NCGC
Consider `COC(=O)c1cc2c(s1)N=C(c1ccccc1)N(C)P2(=O)N1CCOCC1` (centres undefined), for which the activation (GFP accumulation) is inactive: 1.67%.
With `O=P1(Nc2nc3ccc(Cl)cc3s2)COc2ccccc2O1` (centres undefined), the activation (GFP accumulation) is inactive: 0%.
In the case of `C[C@@H](O)COc1ccc([As](=O)(O)O)cc1N` it was inactive: -5.28% [at 9.17 µM].
Consider `CN1CCC[C@H](OC(=O)C(c2ccccc2)c2ccccc2)C1`, for which the activation (GFP accumulation) was inactive: -5.71% [at 9.17 µM].
In the case of `c1nnnn1CCn1cnnn1` it was inactive: 10.7%; in that of `O=P(Nc1nccs1)(c1ccccc1)c1ccccc1`, inactive: -2.63%.
In the case of `O=C(OC1CN2CCC1CC2)c1cccc(Cl)c1` (centres undefined), the activation (GFP accumulation) is inactive: -6.9%.
In the case of `[N-]=[N+]=Nc1ccc([As](=O)(O)O)cc1`, the activation (GFP accumulation) was inactive: -4.65% [at 9.17 µM].
As to `CN(C(=O)Cc1ccccc1)[C@@H]1CC[C@@]2(CCCO2)C[C@H]1N1CCCC1`, the activation (GFP accumulation) is inactive: 0.389%.
`O=C(CO)Nc1ccc([As](=O)(O)O)cc1`: the activation (GFP accumulation) is inactive: 1.03% [at 9.17 µM].
The same measure for `CCc1nc2c(n1)c1c(non1O)c1c2no[n+]1[O-]`: inactive: -9.34%.
Turning to `NCC[C@@H](N)CSP(=O)(O)O`, the activation (GFP accumulation) was inactive: -8.5% [at 9.17 µM].
In the case of `Cc1c2non([O-])c-2c(C)[n+](=O)[n+]1[O-]` it was inactive: -3.12%; in that of `O=[N+]([O-])c1ccc(C[As](=O)(O)O)cc1`, inactive: -9.73% [at 9.17 µM]; in that of `C(Cc1nn[nH]n1)c1nn[nH]n1`, inactive: 2.7% [at 9.17 µM].
In the case of `[N-]=[N+]=NCC(O)CN=[N+]=[N-]` (centres undefined), the activation (GFP accumulation) was inactive: 8.7% [at 9.17 µM].
In the case of `CN(C(=O)Cc1ccc(Cl)c(Cl)c1)[C@H]1CCCC[C@@H]1N1CCCC1` it was inactive: 12.6% and inactive: -5.19% and inactive: -2.5%; in that of `O=[As]c1ccc(S(=O)(=O)NCCO)cc1` (centres undefined), inactive: 6.53% [at 9.17 µM]; in that of `[N-]=[N+]=NCC(N)=O`, inactive: -12.8% [at 9.17 µM].
`NC(=O)Nc1cc([As](=O)(O)O)cc(I)c1O`: the activation (GFP accumulation) was inactive: 4.23% [at 9.17 µM].
In the case of `O=C(OC1CN2CCC1CC2)C12CC3CC(CC(C3)C1)C2` (centres undefined) it was inactive: -9.43%.
For `O=C(COc1ccccc1)OC1CN2CCC1CC2` (centres undefined), the activation (GFP accumulation) was inactive: 0%.
In the case of `O=C(O)[C@@H](O)c1ccc([As](=O)(O)O)cc1` it was inactive: -2.15% [at 9.17 µM].
In the case of `COP1(=S)c2c(C)nn(CCC#N)c2N=C(c2ccc(F)cc2)N1C` (centres undefined) it was inactive: 1.15%.
The same measure for `O=P1(Nc2ccc(Br)cn2)COc2ccccc2OC1`: inactive: 0.534%.
On to `O=P1(Nc2ncccn2)COc2ccccc2OC1`, for which the activation (GFP accumulation) is inactive: 3.45%.
In the case of `Cc1nn(-c2ccccc2)c2c1P(=O)(N1CCOCC1)N(C)C(c1ccccc1)=N2` (centres undefined) it was inactive: -2.51%; in that of `CN(C(=O)Cc1ccc(Cl)c(Cl)c1)[C@@H]1CCCC[C@H]1N1CCCC1`, inactive: 3.18% [middle of 4 runs].
For the molecule `Clc1n[nH]nc1-c1nn[nH][15n]1`, the activation (GFP accumulation) was inactive: 2.6%.
The same measure for `O=P1(Nc2ccccn2)COc2ccccc2OC1`: inactive: -4.97%; for `CN(CCCl)Cc1cc(Cl)c(NC2=NCCN2)c(Cl)c1`: inactive: 8.2%.
The same measure for `CN(C(=O)Cc1ccc(Cl)c(Cl)c1)[C@@H]1CC[C@@]2(CCCO2)C[C@H]1N1CCCC1`: inactive: -1.25%; for `NS(=O)(=O)Cc1ccc([As](=O)(O)O)cc1`: inactive: -6.82% [at 9.17 µM]; for `O=C(CC(=O)c1ccccc1)O[C@H]1CN2CCC1CC2`: inactive: 1.97% [at 9.17 µM].
The same measure for `CCOP1(=S)c2c(C)nn(CCC#N)c2N=C(c2ccc(F)cc2)N1C` (centres undefined): inactive: -1.69%; for `NC(=O)Nc1ccc([As](=O)(O)O)cc1`: inactive: -8.51% [at 20.5 µM]; for `O=[As](O)(O)c1ccc([As](=O)(O)O)cc1`: inactive: 6.82% [at 9.17 µM].
Take `CCOP1(=S)c2c(C)nn(CCC#N)c2N=C(c2ccccc2F)N1C` (centres undefined): the activation (GFP accumulation) was inactive: -0.962%.
For `O=P(Nc1nccs1)(c1ccccc1)c1nc2ccccc2s1` (centres undefined), the activation (GFP accumulation) was inactive: -4.17%.
